Measurements published in paper PMC8300687, “A Fine-Tuned Lipophilicity/Hydrophilicity Ratio Governs Antibacterial Potency and Selectivity of Bifurcated Halogen Bond-Forming NBTIs” (Antibiotics, 2021).

Chains of the proteins cited; added tags and fusions are not shown. Lines headed by an entry give the natural chain unless they say otherwise; changes in a name come on top.
UniProt P20831: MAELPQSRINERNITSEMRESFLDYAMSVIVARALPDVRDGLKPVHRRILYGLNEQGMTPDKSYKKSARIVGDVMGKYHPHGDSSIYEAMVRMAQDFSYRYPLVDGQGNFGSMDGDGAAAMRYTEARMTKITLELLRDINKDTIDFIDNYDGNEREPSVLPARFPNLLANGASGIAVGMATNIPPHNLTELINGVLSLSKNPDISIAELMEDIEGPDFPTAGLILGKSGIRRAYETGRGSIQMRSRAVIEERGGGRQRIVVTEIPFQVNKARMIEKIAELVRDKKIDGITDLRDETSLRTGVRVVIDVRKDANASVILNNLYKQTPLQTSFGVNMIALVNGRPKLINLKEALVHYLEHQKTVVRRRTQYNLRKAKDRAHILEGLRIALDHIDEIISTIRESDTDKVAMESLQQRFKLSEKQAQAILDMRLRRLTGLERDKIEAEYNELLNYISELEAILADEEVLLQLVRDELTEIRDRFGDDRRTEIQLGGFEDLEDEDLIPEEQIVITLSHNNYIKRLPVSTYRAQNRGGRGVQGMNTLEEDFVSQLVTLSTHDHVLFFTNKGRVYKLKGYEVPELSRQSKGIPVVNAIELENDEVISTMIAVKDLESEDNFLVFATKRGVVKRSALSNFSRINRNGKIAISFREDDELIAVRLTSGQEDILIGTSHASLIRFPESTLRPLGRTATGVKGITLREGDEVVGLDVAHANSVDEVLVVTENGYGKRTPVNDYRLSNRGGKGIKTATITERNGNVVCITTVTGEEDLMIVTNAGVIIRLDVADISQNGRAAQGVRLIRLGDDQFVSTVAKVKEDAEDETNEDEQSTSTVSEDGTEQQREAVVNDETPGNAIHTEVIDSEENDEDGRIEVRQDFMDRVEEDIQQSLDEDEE
UniProt P0AFI2: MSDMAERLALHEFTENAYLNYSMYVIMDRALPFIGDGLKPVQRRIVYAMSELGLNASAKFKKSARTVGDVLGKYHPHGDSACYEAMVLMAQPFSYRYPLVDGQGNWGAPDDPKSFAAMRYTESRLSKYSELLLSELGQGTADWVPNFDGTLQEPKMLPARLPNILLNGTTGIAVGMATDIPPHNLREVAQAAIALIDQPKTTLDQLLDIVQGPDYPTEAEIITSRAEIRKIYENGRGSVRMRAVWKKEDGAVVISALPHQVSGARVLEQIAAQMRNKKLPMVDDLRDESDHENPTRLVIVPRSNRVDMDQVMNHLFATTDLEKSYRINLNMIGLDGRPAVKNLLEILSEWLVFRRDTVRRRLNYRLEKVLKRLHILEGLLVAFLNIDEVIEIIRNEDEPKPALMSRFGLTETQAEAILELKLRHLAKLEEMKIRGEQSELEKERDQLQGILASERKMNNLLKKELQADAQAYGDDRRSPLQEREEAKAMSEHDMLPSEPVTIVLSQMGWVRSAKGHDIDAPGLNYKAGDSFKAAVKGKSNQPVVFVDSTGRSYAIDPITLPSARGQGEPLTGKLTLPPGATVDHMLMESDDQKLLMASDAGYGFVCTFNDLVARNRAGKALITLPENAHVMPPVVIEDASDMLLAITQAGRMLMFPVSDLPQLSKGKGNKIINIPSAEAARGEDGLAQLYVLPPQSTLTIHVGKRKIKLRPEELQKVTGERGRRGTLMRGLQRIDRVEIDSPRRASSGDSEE

Assays:
Format in all cases: biochemical
Details in all cases: LE = (1.37/HA) × pIC50
[1] = molecular target: T1, S. aureus DNA gyrase (Staphylococcus aureus, UniProt P20831)
T1 construct: purchased Inspiralis (Norwich, UK)

[2] = molecular target: T2, E. coli DNA gyrase (Escherichia coli, UniProt P0AES4); experiment: Gyrase Supercoiling High Throughput Plate assay, E. coli
T2 construct: purchased Inspiralis (Norwich, UK)

[3] = molecular target: T3, E. coli Topo IV (Escherichia coli, UniProt P0AFI2); experiment: Topo IV Relaxation High Throughput Plate assay, E. coli
T3 construct: purchased Inspiralis (Norwich, UK)

Compound	LE DNA Gyrase S. aureus [1]	LE DNA Gyrase E. coli [2]	LE Topo IV E. coli [3]
COc1ccc2nccc(CCN3CCC(NCc4ccc(Br)cc4)CC3)c2n1 [Compound 14]	0.39	0.29	0.35
COc1ccc2nccc(CCN3CCC(NCc4ccc(I)cc4)CC3)c2n1 [Compound 15]	0.38	–	0.36
